In patent publication US20110319626A1, “Use of Atorvastatin Lactols as Medicaments” (BRADFORD PHARMA LIMITED, priority 2009, published 2011):

Biological target: T1, HMG-CoA reductase (Homo sapiens, UniProt P04035)
T1 construct: oxidation of NADPH by the catalytic subunit of HMGR in the presence of the substrate HMG-CoA; purchased Sigma-Aldrich CS1090 (kit); H8789 (HMG-CoA reductase)
T1 sequence (P04035 340-888 limits assumed): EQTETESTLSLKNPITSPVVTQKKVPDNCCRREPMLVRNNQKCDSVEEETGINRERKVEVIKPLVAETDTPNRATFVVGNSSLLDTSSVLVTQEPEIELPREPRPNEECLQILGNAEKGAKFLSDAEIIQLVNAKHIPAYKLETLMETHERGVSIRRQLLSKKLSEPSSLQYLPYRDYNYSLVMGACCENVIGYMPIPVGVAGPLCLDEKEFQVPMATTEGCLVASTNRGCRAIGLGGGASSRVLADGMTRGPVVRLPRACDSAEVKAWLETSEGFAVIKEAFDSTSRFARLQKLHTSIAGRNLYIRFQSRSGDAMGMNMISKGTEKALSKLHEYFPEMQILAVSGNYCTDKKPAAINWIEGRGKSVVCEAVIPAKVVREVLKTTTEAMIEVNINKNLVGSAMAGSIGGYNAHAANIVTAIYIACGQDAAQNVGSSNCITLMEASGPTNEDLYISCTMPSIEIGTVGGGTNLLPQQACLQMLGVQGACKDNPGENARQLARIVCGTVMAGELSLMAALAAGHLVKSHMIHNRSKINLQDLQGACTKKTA
Test: HMG-CoA Reductase assay kit (spectrophotometric NADPH absorbance at 340 nm)
Type: biochemical
Conditions: NADPH and HMG-CoA both 200 μM, inhibitor concentrations varied from 0 nM to 50 nM, 37° C.
Method: All assays were carried out in a reaction buffer containing […] KxPO4 at pH 7.2, 1 mM EDTA, 500 mM KCl and 1 mg/ml BSA. The concentrations of NADPH and HMG-CoA were both 200 μM. The enzyme concentration used is unknown although this concentration is 10-fold lower than that of the stock solution purchased. […] Reactions were activated by the addition of enzyme and agitated for 12 seconds following the addition. Absorbance readings were then taken every 20 seconds for 600 seconds. In initial tests the concentration of each inhibitor was set at 50 nM to identify which compounds were the better inhibitors, compared to the known Pravastatin inhibitor. After these were identified, assays were carried out varying their concentrations from 0 nM to 50 nM allowing IC50 values to be calculated.
This is illustrated in the following reaction scheme:
HMG-CoA+2NADPH+2H^+→mevalonate+2NADP^++CoA-SH
Add a buffer to all samples. • b. […] Add the reconstituted NADPH to all samples. • d. Add Substrate Solution (HMG-CoA) to all samples. • e. […] Mix the samples thoroughly.
3. The kinetics programme was started immediately.

- pIC50: 8.15
Structure (SMILES): CC(C)c1c(C(=O)Nc2ccccc2)c(-c2ccccc2)c(-c2ccc(F)cc2)n1CC[C@@H](O)C[C@@H](O)CC(=O)O

pIC50: −log10 of the molar value.
